Paper PMC10981688, “PCSK9 stimulates Syk, PKCδ, and NF-κB, leading to atherosclerosis progression independently of LDL receptor” (Nature Communications, 2024)

Target: recombinant human LOX1 (lectin-type oxidized LDL receptor 1) (human)
Test: BLI; BLItz system; PCSK9-His (hPCSK9, 500 nM, 120 s loading) immobilised on an anti-Penta-HIS sensor; association 120 s, dissociation 120 s; sensorgrams fit globally to a 1:1 binding model
Details: both partners purified

B1: recombinant human PCSK9 with 6x His tag (proprotein convertase subtilisin/kexin type-9) (natural protein)
chain: not shown
notes: proprotein convertase subtilisin/kexin type-9 (PCSK9), human, recombinant; written here as one chain; also called rhPCSK9-His; PCSK9-His
Kd: 2830 nM
